The values that follow come from PubChem BioAssay AID651702 (NMMLSC, 2012).

The list shows a part of the results, in another mix than the full data. Calls of active or inactive are those of the source.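 Rule for the calls: active = inhibition above about 55% (limit read from the data); inconclusive = no clear call, values can overlap the other calls; inactive = the rest.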

This assay can be described thus: LAMP-1 surface exposure blockers, TALL-104 cells – cell-based, flow cytometry, MLPCN library, primary screen (AID 651702). Conditions: TALL-104 LAMP-1 surface exposure, at 10 µM, active compounds read high, cells stimulated with thapsigargin and PMA.
Regarding `COc1cc(I)ccc1[As](=O)(O)O`, the inhibition – broadly, the relative decrease from the control value, in per cent – is inactive: -7.3%.
